The target in the experiment is VEGF 121 (R&D Biosystems) (UniProt P15692). Kind of experiment: cell-based or functional assay.

Amino acid sequences for entries named in this document (tags omitted). Chains listed by the source or under a name are the forms on record and can include a tag or linker.
UniProt P15692, other isoform, or with tags, fused parts or gaps limits assumed: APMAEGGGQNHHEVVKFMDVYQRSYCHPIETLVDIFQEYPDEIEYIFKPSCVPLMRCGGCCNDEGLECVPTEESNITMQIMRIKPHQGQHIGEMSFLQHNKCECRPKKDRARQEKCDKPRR

Data on 1 substance can be found in patent publication US20080220004A1.

Turning to “anti-VEGF antibody (Avastin™, Genentech)”, the inhibition of VEGF growth response of Baf/Flt cells (70 pM VEGF, 3 days), IC50 stood at 1.4 nM.
